The nature of this series: Nonlinear mixed effect (NLME) compartmental modeling of merged IV and oral serum concentrations. The note with it: mean. From the text:
A nonlinear mixed effect (NLME) modeling approach was used to analyze simultaneously all data obtained from the different rabbits after both IV and oral administrations and to provide robust estimates of the typical TK parameters.
The primary parameters of the model, namely the volume of distribution of the central compartment (V1), the first-order rate constants ( K10 , K12 , K21 , and Kabs plus K13 , K31 for PFOA) and the bioavailability (F) and their associated precisions [standard error (SE)] were estimated by minimizing an objective function value (OFV) expressed as minus twice the log of the likelihood estimation ( −2LL ). […] Marginal likelihood was approximated by using the Laplacian engine by default and, when this engine was unable to determine the SE of the estimate, the Quasi-Random Parametric Expectation Maximization (QRPEM) was selected.
Between subject variability (BSV) of the parameters was measured using the exponential model θparameter_i=θtv_parameter×exp (ηi), where θparameter_i is the parameter estimated for the ith individual, θtv_parameter is the typical population value of the parameter, and ηi is the deviation associated with the ith individual from the corresponding value of the parameter at the population level.
The distribution of ηi was assumed to be normal with a mean of 0 and a variance ω² . BSV was reported as a coefficient of variation (CV) in the original scale CV(%)=100× exp (ω^2)−1 .
The residual variance was modeled using a combined additive and proportional error model Cobsij=Cpredij(1 + ε1ij) + ε2ij, where Cobsij and Cpredij are respectively the jth observed and predicted concentrations for the ith individual, and ε1ij and ε2ij are the multiplicative and additive residual errors.
Secondary parameters were calculated from the population primary parameters.
The clearance values (CL) were estimated using Equation 5: (5) CL=K10×V1, where V1 is the volume of the central compartment and K10 is the elimination rate constant from the central compartment.
The volume of the peripheral compartment (V2) was estimated with Equation 6: (6) V2=V1×(K12/K21), where K12 and K21 are the distribution rate constants between the central and the peripheral compartments.
The clearance of distribution (Q) was estimated using Equation 7: (7) Q=K12×V1, with […] and K12 as defined above.
The volume of distribution associated with the terminal phase was estimated with Equation 10: (10) VZ=CL/λZ, with λZ as defined above.
The AUC was computed as a secondary parameter using Equation 11: (11) AUC=Dose/CL.
The terminal half-life was estimated with Equation 1, as previously described.

[1] abbreviates: population primary parameter, typical value.

For `CCCCC(CC)COC(=O)c1ccccc1C(=O)O` (centres unmarked) [MEHP, mono(2-ethylhexyl)phthalate], the “tvK21 (distribution rate constant)” value under setting [1] came to 0.027 h⁻¹. Also, for the setting “population primary parameter, typical value, MEHP after oral DEHP”, the “tvKabs (rate constant of absorption)” value was 0.111 h⁻¹.

As to `O=S(=O)(c1ccc(O)cc1)c1ccc(O)cc1` [BPS, bisphenol S], under setting [1], the “tvK12 (distribution rate constant)” value worked out at 1.342 h⁻¹ and the “tvK21 (distribution rate constant)” value was 0.122 h⁻¹. Also, the “Volume(s) of the peripheral compartment” value (population secondary parameter, for PFOA first peripheral compartment) is reported as 18 L/kg.

Source of the values: article PMC8597046, “Use of Mixture Dosing and Nonlinear Mixed Effect Modeling of Eight Environmental Contaminants in Rabbits to Improve Extrapolation Value of Toxicokinetic Data” (Environmental Health Perspectives, 2021).
